From patent US12014835B2, “Methods for evaluating therapeutic benefit of combination therapies” (Vanderbilt University, priority 2020, dated 2024)

Test system: PC9 cells
Experiment: MuSyC drug combination screen with osimertinib, DIP rate, high-throughput in vitro assay
Assay type: cell-based
Settings: drug-synergy diagram
Procedure: FIG. 2A illustrates a high-throughput pipeline for generating dose-response surfaces. Initial drug matrix is prepared on a 384-well plate and transferred to cells seeded at subconfluent densities. Cells are engineered to express a fluorescently tagged histone (H2B-RFP), allowing for cell counts using automated segmentation software. Each condition is imaged every 6-8 h, resulting in growth curves. The growth curves are fit to determine the drug-induced proliferation (DIP) rate (slope of dotted line, vide infra) to quantify drug effect. This matrix of DIP rates is fit to our equation to extract synergy parameters.
MuSyC was applied to evaluate the synergistic potency and efficacy of a 64-drug panel (see Table 1 for drugs, drug classes, nominal targets, and tested concentration ranges) in combination with osimertinib, a mutant EGFR-tyrosine kinase inhibitor recently approved for first-line treatment of EGFR-mutant NSCLC. The selected drugs span a diverse array of cellular targets that can be broadly grouped into four categories: kinases, receptors and channels, epigenetic regulators, and mitotic checkpoints, each with several sub-categories. The combinations were tested in PC9 cells, a canonical model of EGFR-mutant NSCLC using a high-throughput, in vitro, drug-screening assay (FIG. 2A). […]

## CCC1=C[C@@H]2CN(C1)Cc1c([nH]c3ccccc13)[C@@](C(=O)OC)(c1cc3c(cc1OC)N(C)[C@H]1[C@@](O)(C(=O)OC)[C@H](OC(C)=O)[C@]4(CC)C=CCN5CC[C@]31[C@@H]54)C2 [vinorelbine]
  synergistic efficacy (in words): upward shift along the axis of synergistic efficacy
